In data set [1] the target is GH release from primary cultures of rat pituitary cells (somatostatin subtype 2 rat receptor related system) (Rattus norvegicus, UniProt P30680). Kind of data set: Inhibition of GH release from primary cultures of rat pituitary cells. The class given is cell-based. The settings on record: GH stimulated with 1 nM GRH(1-29)NH2, 3 h. On the procedure:
This is a primary system for evaluating SRIF analog potency and can be considered a somatostatin subtype 2 rat receptor related system which historically also correlates well with human subtype 2 binding.
Anterior pituitaries from adult male rats weighing 200-250 g and housed under controlled conditions (lights on from 0500-1900 h), are dispersed using aseptic techniques by a trypsin/DNase method. The dispersed cells are diluted with sterile-filtered Dulbecco's modified Eagle medium (MEM) (Gibco Laboratories, Grand Island, N.Y. (GIBCO)), which is supplemented with 2.5% fetal calf serum (GIBCO), 3% horse serum (GIBCO), 10% fresh rat serum (stored on ice for no longer than 1 h) from the pituitary donors, 1% MEM nonessential amino acids (GIBCO), gentamycin (10 ng/ml; Sigma), and nystatin (10,000 U/ml; GIBCO). The cells are counted with a hemacytometer (approximately 2,000,000 cells per pituitary) and randomly plated at a density of 200,000 cells per well (Co-star cluster 24; Rochester Scientific Co., Rochester, N.Y.). […]
In preparation for a hormone challenge, the cells are washed 3× with medium 199 (GIBCO) to remove old medium and floating cells. […] GH in plasma and media is measured by a standard double antibody RIA using components supplied by the NIDDK and the National Hormone and Pituitary Program.

Amino acid sequences for entries named in this document (tags omitted). A change or cut given only in a name is not applied to a line headed by its entry.
UniProt P30680: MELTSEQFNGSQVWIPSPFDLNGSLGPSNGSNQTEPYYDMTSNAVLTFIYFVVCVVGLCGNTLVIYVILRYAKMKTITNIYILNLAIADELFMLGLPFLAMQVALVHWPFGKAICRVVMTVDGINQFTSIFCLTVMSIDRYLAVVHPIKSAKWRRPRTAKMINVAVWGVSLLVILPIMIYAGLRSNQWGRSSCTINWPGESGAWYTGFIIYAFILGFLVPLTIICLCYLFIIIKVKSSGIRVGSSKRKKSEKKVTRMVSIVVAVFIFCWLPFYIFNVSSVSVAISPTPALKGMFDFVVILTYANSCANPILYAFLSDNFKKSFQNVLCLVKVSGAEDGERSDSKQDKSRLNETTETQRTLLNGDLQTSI

Data set [2] is described as follows: Biodistribution of 125I-labeled peptides in rats. The settings on record: 125I-labeled peptide, intraperitoneal, 24 hours.

One may read the IC50 as the point on the concentration scale where inhibition reaches its midpoint. For “Succinate-D-Asp-D-Ser-D-Ser-D-Ser-D-Ser-D-Ser-D-Asp-D-Ser-D-Ser-D-Ser-D-Ser-D-Ser-L-Lys-D-Tyr-D-Tyr-cyclo[L-Cys-L-Phe-D-Trp-L-Lys-L-Thr-L-Cys]-L-Thr-NH2 [JF-08-73]”, the IC50 in data set [1] stood at 0.51 nM. Further, in data set [2], the “Accumulation of radioactivity in normal tissue including liver (FIG. 2)” value is “lack of accumulation”; the “Elimination of labeled peptide in urine and feces (FIG. 2)” value is “rapid and high efficiency elimination”.

The values above are taken from patent publication US7326685B2, “Diagnostic or therapeutic somatostatin or bombesin analog conjugates and uses thereof” (The Administrators of the Tulane Educational Fund, priority 2001, dated 2008).
